We go through three compounds from patent publication EP4775571A1, “LPAR1 ANTAGONIST AND USE THEREOF” (Haisco Pharmaceutical Group Co., Ltd., priority 2023, dated 2025).

Chains of the proteins cited; added tags and fusions are not shown.
UniProt Q92633, whole entry: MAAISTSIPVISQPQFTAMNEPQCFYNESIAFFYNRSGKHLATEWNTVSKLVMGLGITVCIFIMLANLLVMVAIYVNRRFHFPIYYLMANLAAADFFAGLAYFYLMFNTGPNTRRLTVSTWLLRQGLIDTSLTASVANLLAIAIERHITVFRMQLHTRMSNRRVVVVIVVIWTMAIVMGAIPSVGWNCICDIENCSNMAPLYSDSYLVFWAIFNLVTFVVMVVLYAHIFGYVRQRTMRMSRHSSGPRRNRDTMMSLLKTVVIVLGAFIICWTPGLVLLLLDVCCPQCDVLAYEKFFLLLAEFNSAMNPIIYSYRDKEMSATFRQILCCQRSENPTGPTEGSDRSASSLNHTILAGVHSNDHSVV

The experiment has as its target LPAR1 (Homo sapiens, UniProt Q92633). Nature of the experiment: Cell calcium flux assay (antagonist mode, LPA at EC80, FLIPR). The procedure:
• 1) The test compound was diluted to a 400X stock solution with DMSO in a 384-well plate. • 2) 1 µl of compound solution from step 1 was transferred into 39 ul of assay buffer to prepare a 10X working solution in a 384-well plate using a Bravo automated liquid handling platform. • 3) CHO-LPA1 cells were cultured in F12 medium (10% FBS). • 4) When cells reached 80% confluence, the cells were dissociated using 0.25% trypsin-EDTA. • 5) Cell density was determined and the cells were diluted to 4x10e5/ml using F12 (10% FBS). • 6) 30 µl of the cell suspension was dispensed into a 384-well plate (corning 3764#) using a multidrop automated dispenser, resulting in 12,000 cells per well. The plate was incubated at 37°C with 5% CO2 for 18-20 hours. • 7) The medium was replaced with 25 uL of serum-free medium and incubated overnight. • 8) 10 ul of 3.5X loading dye was added to each well of the cell plate. The plate was incubated in the dark at 37°C with 5% CO2 for 0.5-1 hours. • 9) After incubation, 5 µl of the 10X working solution from step 2 was transferred to the cell plate. • 10) The cell plate was incubated in the dark at 25°C for 15 minutes, and then the calcium signals were read. • 11) A 5X agonist (LPA) working solution in 1X HBSS+20 mM HEPES+0.1% BSA was prepared in a 384-well assay plate (greiner 784075#), with at least 20 µl per well. The agonist concentration used in this assay was determined based on the dose-response curve from a prior agonist mode experiment, with the EC80 value serving as the final agonist concentration. • 12) Data were read and saved using FLIPR at room temperature with the specified settings. • 13) The signal values were plotted against compound concentrations, and the curve fitting was performed and the IC50 values were calculated using nonlinear regression analysis in GraphPad Prism software.
IC50 values are represented by grades A, B, C, and D, where A represents 0 < IC50 ≤ 10 nM, B represents 10 nM < IC50 ≤ 50 nM, C represents 50 nM < IC50 ≤ 100 nM, and D represents IC50 > 100 nM. […]
(In general: A change in cytosolic calcium serves as a functional read-out for many receptors and channels.)

Setting [1] is: read-out: LPAR1 IC50, CHO-LPA1 cells, grades, tested form: free acid.

Read-outs that look alike come from different tables or passages of the source.

In the case of `CCCN(C)C(=O)OCc1c(-c2ccc(N3CCC4CCC(C(=O)O)CC43)c(C)n2)nnn1C` (stereo not drawn), under setting [1], the IC50 was 10 to 50 nM.
For `C=C1CC(N(C)C(=O)OCc2c(-c3ccc(N(C)C4CCCC(C(=O)O)C4)c(C)n3)nnn2C)C1` (single isomer, unassigned), under setting [1], the IC50 is 10 to 50 nM.
As for `C=C1CC(N(C)C(=O)OCc2c(-c3ccc(OC4CC(C(=O)O)CC5C4C5(F)F)c(C)n3)nnn2C)C1` (single isomer, unassigned), under “read-out: LPAR1 IC50, CHO-LPA1 cells, grades, tested form: TFA”, the IC50 was less than 10 nM.

By IC50 is commonly meant the concentration that inhibits the measured activity by half.
